From US20090048295A1, “SUBSTITUTED 5,6,7,8-TETRAHYDROQUINOLINE DERIVATIVES, COMPOSITIONS, AND METHODS OF USE THEREOF” (priority 2007, published 2009)

Sequences of proteins named here, by UniProt entry; tags and fusion partners are left off.
UniProt P21730, whole entry: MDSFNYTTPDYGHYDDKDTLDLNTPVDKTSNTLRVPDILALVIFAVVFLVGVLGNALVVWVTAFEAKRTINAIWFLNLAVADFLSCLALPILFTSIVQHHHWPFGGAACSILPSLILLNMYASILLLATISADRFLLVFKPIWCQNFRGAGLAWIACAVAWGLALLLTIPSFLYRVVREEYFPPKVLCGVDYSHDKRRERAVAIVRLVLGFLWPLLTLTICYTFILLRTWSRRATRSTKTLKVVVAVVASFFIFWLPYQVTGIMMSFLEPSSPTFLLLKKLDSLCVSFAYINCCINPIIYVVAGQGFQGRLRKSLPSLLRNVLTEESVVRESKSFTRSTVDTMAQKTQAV

How the values were obtained:
C5a receptor [1] = biological target: T1, C5a receptor (Homo sapiens, UniProt P21730); test: Calcium Mobilization Assay (C5a-induced Ca2+ mobilization, FLIPR, differentiated U937 cells); format: cell-based; details: read-out: C5a Induced Ca Mobil. Average IC50, 1.5 nM recombinant human C5a, 20 min pre-incubation, multiple values = duplicate experiments
C5a receptor [2] = biological target: T1, C5a receptor; test: [125I]-C5a Radioligand Binding Assay (competition binding, differentiated U937 cells); details: [125I]-C5a 0.05 nM, multiple values = duplicate experiments;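 further: cells preincubated with compound 30 min at room temperature, then 60 min at 4 °C with radioligand, bound counts read by scintillation, nonspecific binding defined with 100 nM C5a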

IC50 (C5a receptor [1]): > 10 µM | [125I]-C5a Binding % Inhibition 1 μM (C5a receptor [2]; test compound 1 μM): 54% | [125I]-C5a Binding % Inhibition 10 μM (C5a receptor [2]; test compound 10 μM): 84%
Compound: CCc1cccc(CC)c1-c1cc(OC)c2c(n1)CCCC2OCCNc1cccc2ccccc12 (stereo not drawn)
